Results: PubChem BioAssay AID651636 (Sanford-Burnham Center for Chemical Genomics, 2012)
This is a selection; strong and weak results do not stand in their true shares. Some salts or complexes appear as unconnected parts, following the source record. The source made the active and inactive calls. No stated cut-off is given here; in the data, active means inhibition above about 38%; inactive means the rest.

Chains of the proteins cited; added tags and fusions are not shown.
UniProt P32249, whole entry: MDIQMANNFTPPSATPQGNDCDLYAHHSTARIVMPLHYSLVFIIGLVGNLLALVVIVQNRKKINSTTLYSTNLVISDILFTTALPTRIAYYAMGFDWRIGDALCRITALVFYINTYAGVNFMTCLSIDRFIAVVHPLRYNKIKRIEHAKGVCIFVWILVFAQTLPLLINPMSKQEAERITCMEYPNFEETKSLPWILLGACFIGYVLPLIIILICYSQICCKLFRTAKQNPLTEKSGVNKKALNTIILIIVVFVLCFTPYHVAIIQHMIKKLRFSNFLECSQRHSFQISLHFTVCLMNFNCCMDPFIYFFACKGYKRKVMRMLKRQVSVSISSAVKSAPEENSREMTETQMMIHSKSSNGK

Biological target: G-protein coupled receptor 183 (Homo sapiens) (UniProt P32249)
Assay: blockers of oxysterol-driven EBI2 arrestin signaling – cell-based, luminescence, 7a,25-OHC stimulation, uHTS, primary screen (AID 651636);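 further: enzyme fragment complementation signal reports receptor beta-arrestin coupling in cells; 0% = agonist plus DMSO wells and 100% = wells without agonist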
Conditions: EBI2 beta-arrestin recruitment, 7a,25-OHC stimulated, at 5 µM, stronger effect = higher value

| Compound | inhibition |
| --- | --- |
| O=[N+]([O-])c1cc([N+](=O)[O-])c(-n2nnc3ccccc32)c([N+](=O)[O-])c1 | inactive: -5.51% |
| CP(=O)(Nc1ccccn1)Oc1ccc(Cl)cc1 (stereo not given) | inactive: -8.12% |
| CCOP(C)(=S)SCC(=O)NC(C)C(=O)O (stereo not given) | inactive: 5.09% |
| O=[N+]([O-])c1cc([N+](=O)[O-])c(O)c([N+](=O)[O-])c1.c1ccc(Oc2ccncc2)cc1 | inactive: 4.32% |
| CCOC(=O)c1ccc(NP(C)(=O)Oc2ccc(OC)cc2)cc1 (stereo not given) | inactive: -7.18% |
| Cc1cc(C)cc(OP(C)(=O)Nc2ccc(SC(F)(F)F)cc2)c1 (stereo not given) | inactive: -8.1% |
| CCc1ccc(OP(C)(=O)N2CCN(c3ccc([N+](=O)[O-])cc3)CC2)cc1 (stereo not given) | inactive: 1.04% |
| CP(=O)(NC(=O)Nc1ccccc1)Oc1ccccc1 (stereo not given) | inactive: -1.04% |
| CP(=O)(Oc1ccccc1)OC(c1ccccc1)C(F)(F)F (stereo not given) | inactive: 0.978% |
| CP(=O)(Nc1ccc(SC(F)(F)F)cc1)Oc1ccc(Cl)cc1 (stereo not given) | inactive: 40.9% |
| Cc1ccc(Nc2c([N+](=O)[O-])cc([N+](=O)[O-])cc2[N+](=O)[O-])cc1 | inactive: -7.75% |
| Cc1cccc(C)c1OP(C)(=O)Nc1ccc(SC(F)(F)F)cc1 (stereo not given) | inactive: -5.57% |
| COc1ccccc1OP(C)(=O)Nc1ccccc1 (stereo not given) | inactive: -4.4% |
| CP(=O)(Nc1ccccc1Br)Oc1ccccc1 (stereo not given) | inactive: -9.7% |
| CP(=S)(Nn1cnnc1)Oc1ccccc1 (stereo not given) | inactive: -1.82% |
| COc1ccc(OP(C)(=O)Nc2cccc(F)c2)cc1 (stereo not given) | inactive: -3.83% |
| COc1ccccc1OP(C)(=O)Nc1cc(Cl)ccc1C (stereo not given) | inactive: -4.09% |
| Cc1cc(C)cc(OP(C)(N)=O)c1 (stereo not given) | inactive: 5.91% |
| CCOC(=O)c1ccc(NP(C)(=O)Oc2ccccc2)cc1 (stereo not given) | inactive: -11.6% |
| Cc1ccc(NP(C)(=O)Oc2ccccc2)c(C)c1 (stereo not given) | inactive: -1.29% |
| COc1ccccc1OP(C)(=O)Nc1ccc(C)cc1 (stereo not given) | inactive: -0.889% |
| Cc1cccc(C)c1OP(C)(N)=O (stereo not given) | inactive: -1.52% |
| CC(C)(C)c1ccc(OP(C)(=O)Nc2ccc(SC(F)(F)F)cc2)cc1 (stereo not given) | inactive: 12.1% |
| O=[N+]([O-])c1ccc2c(c1)C=Nc1ccccc1O2 | inactive: -0.359% |
| O=[N+]([O-])c1cc([N+](=O)[O-])c(Nc2cccnc2)c([N+](=O)[O-])c1 | inactive: -12.4% |
| COc1ccccc1-c1ccccn1.O=[N+]([O-])c1cc([N+](=O)[O-])c(O)c([N+](=O)[O-])c1 | inactive: 5.84% |
| CCN(CC)CCCOC(=O)C(O)(c1ccccc1)c1ccccc1 | inactive: -3.08% |

| Compound | inhibition |
| --- | --- |
| CCc1ccc(OP(C)(=O)O)cc1 | inactive: 8.56% |
| COc1ccccc1OP(C)(=O)Nc1ccc(C)cc1C (stereo not given) | inactive: 4.07% |
| CP(=O)(Nc1ccccn1)Oc1ccccc1 (stereo not given) | inactive: 4.83% |
| O=[N+]([O-])c1cc([N+](=O)[O-])c(Nc2ccccn2)c([N+](=O)[O-])c1 | inactive: 8.17% |
| Cc1c(NP(C)(=O)Oc2ccc(C(C)C)cc2)c(=O)n(-c2ccccc2)n1C (stereo not given) | inactive: -1.13% |
| CN(C)CCOC(=O)C(O)(c1ccccc1)C1CCCC1 (stereo not given) | inactive: -13.2% |
| COc1ccc(OP(C)(=O)Nc2ccccn2)cc1 (stereo not given) | inactive: -12.5% |
| COc1ccccc1OP(C)(=O)Nc1ccc(Br)cc1 (stereo not given) | inactive: -10.6% |
| CP(=O)(OCCOc1ccccc1)OCCOc1ccccc1 | inactive: 2.92% |
| CP(=O)(Nc1ccc(Cl)cc1Cl)Oc1ccccc1 (stereo not given) | inactive: 7.13% |
| CCCCCCCCCCCCCCCC1C[N+](C)(C)CCOP(C)(=O)O1 (stereo not given) | inactive: -0.198% |
| COc1ccc(OP(C)(=O)Nc2ccccc2Br)cc1 (stereo not given) | inactive: -4.57% |
| COc1ccccc1OP(C)(=O)Nc1ccc(C)c(C)c1 (stereo not given) | inactive: -6.08% |
| Cc1cc(C)cc(OP(C)(=O)Nc2cccc(C(F)(F)F)c2)c1 (stereo not given) | inactive: 2.52% |
| O=C1C(O)=C([N+](=O)[O-])C(=O)C(O)=C1[N+](=O)[O-] | inactive: 0.0707% |
| CP(=O)(OC12CC3CC(CC(C3)C1)C2)OC12CC3CC(CC(C3)C1)C2 | inactive: 5.83% |
| CCOC(=O)c1ccc(NP(C)(=O)Oc2ccc(Cl)cc2)cc1 (stereo not given) | inactive: -3.93% |
| CN(C)C(=O)c1c([N+](=O)[O-])cc([N+](=O)[O-])cc1[N+](=O)[O-] | inactive: -4.23% |
| CP(=O)(Nc1ccc(Cl)cc1)Oc1ccc(F)cc1 (stereo not given) | inactive: -1.56% |
| CC(C)(C)c1ccc(OP(C)(=O)O)cc1 | inactive: -12.2% |
| COc1ccccc1OP(C)(=O)Nc1ccccc1Br (stereo not given) | inactive: -0.839% |
| CCc1ccc(OP(C)(=O)Nc2cccnc2)cc1 (stereo not given) | inactive: -10.6% |
| CP(=O)(Oc1ccccc1)N1CCOC1=O (stereo not given) | inactive: 2.25% |
| O=C(OCCCN1CCCC1)C(O)(c1ccccc1)C1CCCCC1 (stereo not given) | inactive: -7.05% |
| COc1ccccc1OP(C)(=O)Nc1c(C)n(C)n(-c2ccccc2)c1=O (stereo not given) | inactive: -4.23% |
| COc1ccc(OP(C)(=O)Nc2ccc(Br)cc2)cc1 (stereo not given) | inactive: -10.5% |
| CCN(CC)CC(O)COC(=O)C(O)(c1ccccc1)C1CCCCC1 (stereo not given) | inactive: -18.6% |

| Compound | inhibition |
| --- | --- |
| O=[N+]([O-])c1cc([N+](=O)[O-])c(C(F)(F)F)c([N+](=O)[O-])c1O | inactive: 4.74% |
| Cc1ccccc1NP(C)(=O)Nc1ccccc1C | inactive: 1.94% |
| CP(=O)(Nc1ccc2c(c1)OCCO2)Oc1ccccc1 (stereo not given) | inactive: -18.4% |
| CCOP(C)(=S)SCC(=O)NC(C)(CC)C(=O)O (stereo not given) | inactive: -10.7% |
| CP(=O)(Nc1ccc(SC(F)(F)F)cc1)Oc1ccc(F)cc1 (stereo not given) | inactive: -0.39% |
| Cc1c(C(c2ccc3c(c2)OCO3)c2c(C)n(C)n(-c3ccccc3)c2=O)c(=O)n(-c2ccccc2)n1C.O=[N+]([O-])c1cc([N+](=O)[O-])c(O)c([N+](=O)[O-])c1 | inactive: -1.01% |
| Cc1cc(-c2cccc3ccccc23)c(C)cn1.O=[N+]([O-])c1cc([N+](=O)[O-])c(O)c([N+](=O)[O-])c1 | inactive: 10.1% |
| O=[N+]([O-])c1cc([N+](=O)[O-])c(NCC2CCS(=O)(=O)C2)c([N+](=O)[O-])c1 (stereo not given) | inactive: -1.82% |
| O=[N+]([O-])c1ccc(OP2(=O)COCCO2)cc1 (stereo not given) | inactive: 1.66% |
| COc1ccc(NP(C)(=O)Oc2ccccc2OC)cc1 (stereo not given) | inactive: -5.52% |
| CN(C)CCOC(=O)C(O)(c1ccccc1)C1CCCCC1 (stereo not given) | inactive: -1.82% |
| COc1ccc(OP(C)(=O)Nc2cccc(Br)c2)cc1 (stereo not given) | inactive: -5.54% |
| O=[N+]([O-])c1cc([N+](=O)[O-])c(OC2CCCCC2O)c([N+](=O)[O-])c1 (stereo not given) | inactive: -7.42% |
| CCCCCOc1ccc(NP(C)(=O)Oc2ccc(Cl)cc2Cl)cc1 (stereo not given) | inactive: 8.14% |
| CP(=O)(Nc1ccccc1)Oc1ccc(F)cc1 (stereo not given) | inactive: -2.17% |
| CCN(CC)CCCOC(=O)C(O)(c1ccccc1)C1CCCCC1 (stereo not given) | inactive: -12.1% |
| Cc1c([N+](=O)[O-])cc([N+](=O)[O-])c(Br)c1[N+](=O)[O-] | inactive: 0.688% |
| COc1ccc(OP(C)(=O)Nc2ccc(SC(F)(F)F)cc2)cc1 (stereo not given) | inactive: 7.61% |
| CCOC(=O)c1ccc(NP(C)(=O)Oc2ccc(F)cc2)cc1 (stereo not given) | inactive: -31.2% |
| CCN(CC)CCCNc1ccccc1[N+](=O)[O-].O=[N+]([O-])c1cc([N+](=O)[O-])c(O)c([N+](=O)[O-])c1 | inactive: 3.48% |
| COc1ccc2c(c1O)-c1c(O)c(OC)cc3c1[C@H](C2)[N+](C)(C)CC3.O=[N+]([O-])c1cc([N+](=O)[O-])c([O-])c([N+](=O)[O-])c1[O-] | inactive: -25.9% |
| O=C(OCCN1CCN(CCOCc2ccccc2)CC1)C(O)(c1ccccc1)c1ccccc1 | inactive: -4.34% |
| O=C(OC1CN2CCC1CC2)c1ccc([N+](=O)[O-])cc1 (stereo not given) | inactive: -2.64% |
| CC(C)c1ccc(OP(C)(=O)Nc2ccc(SC(F)(F)F)cc2)cc1 (stereo not given) | inactive: 9.71% |
| CP(=O)(Nc1ccccc1F)Oc1ccccc1 (stereo not given) | inactive: -0.945% |
| O=[N+]([O-])c1cc([N+](=O)[O-])c(Nc2ccc(Cl)cc2)c([N+](=O)[O-])c1 | inactive: 1.54% |
